Sequences of proteins named here, by UniProt entry; tags and fusion partners are left off. Residues count along the entry.
UniProt P16294, 47-471 limits assumed: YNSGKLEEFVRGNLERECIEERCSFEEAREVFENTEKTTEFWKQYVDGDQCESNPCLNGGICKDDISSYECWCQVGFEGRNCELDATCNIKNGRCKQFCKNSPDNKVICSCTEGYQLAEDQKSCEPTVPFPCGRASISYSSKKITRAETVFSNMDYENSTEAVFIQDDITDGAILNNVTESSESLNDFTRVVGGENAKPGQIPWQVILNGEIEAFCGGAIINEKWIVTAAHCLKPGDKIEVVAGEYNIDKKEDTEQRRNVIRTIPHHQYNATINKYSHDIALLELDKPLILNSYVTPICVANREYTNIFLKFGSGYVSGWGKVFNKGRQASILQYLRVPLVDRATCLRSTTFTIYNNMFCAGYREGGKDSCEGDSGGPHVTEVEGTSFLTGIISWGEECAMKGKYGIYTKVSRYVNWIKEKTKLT

According to patent US20140303084A1 (Biogen, published 2014):

Experiments:
mouse FIXa = mouse FIXa (mouse, UniProt P16294 47-471, limits assumed); test: cell-based or functional assay
human Factor IXa = human Factor IXa (human, UniProt P00740 47-191; P00740 227-461); test: cell-based or functional assay

Binder	EC50, FXa generation assay with mouse FIXa (mouse FIXa) [nM]	EC50 (µM), FXa generation assay, with phospholipids (human Factor IXa) [µM]	EC50 (µM), FXa generation assay, without phospholipids (human Factor IXa) [µM]
KLTCLASYCWLF (C-terminal amide) [compound 1]	440	0.49	–
KLTCLASYCWLF (D-Lys at 1; N-methyl-Leu at 2; C-terminal amide) [compound 2]	–	0.23	–
RRAPGKLQCLASYCWLFWTGIA (C-terminal amide) [compound 3]	–	0.125	0.115
